Assay results as given in PubChem BioAssay AID686979 (National Center for Advancing Translational Sciences (NCATS), 2013).
The list shows a part of the results, in another mix than the full data. Results filed as inconclusive are left out. Activity calls are given as the source filed them. Calls follow the shape of the dose curve; as a rule, active = well fitted inhibition curve with a large enough effect; inconclusive = small, poorly fitted or top-dose-only effect; inactive = flat fitted curve, though single readings scatter.

experiment: qHTS for Inhibitors of human tyrosyl-DNA phosphodiesterase 1 (TDP1): qHTS in cells in presence of CPT; settings: chicken DT40 Tdp1-/-;hTDP1 cells + 20 nM CPT, ATP luminescence, 48 h; series mostly up to 46.2 µM; activity change, negative = growth inhibition: at the top concentration; also: nearly all actives have a fitted effect of over 55% in size
% is scaled to controls: 0 for no effect and ±100 for the full control effect; potency is read from the fitted curve at half-maximal effect.

| SMILES | Potency | activity change, negative = growth inhibition |
| --- | --- | --- |
| CCC(C)N(CC(C)C)C(=S)SC(NC(C)=O)C(Cl)(Cl)Cl (stereo unspecified) | active: 1.03 µM |  |
| CCOC(=O)c1ccc(NC(=O)C(C)(CCl)SC)cc1 (stereo unspecified) |  | inactive: 5.37% |
| O=C(OC1CN2CCC1CC2)c1cccc([N+](=O)[O-])c1 (stereo unspecified) |  | inactive: -5.62% |
| CSc1ccc(Nc2c([N+](=O)[O-])cc([N+](=O)[O-])cc2[N+](=O)[O-])cc1 | active: 3.66 µM |  |
| O=C(COc1ccccc1)OC1CN2CCC1CC2 (stereo unspecified) |  | inactive: -8.38% |
| O=C(Nc1ccncc1[N+](=O)[O-])c1ccc([N+](=O)[O-])cc1[N+](=O)[O-] | active: 14.6 µM |  |
| COP1(=S)c2c(C)nn(CCC#N)c2N=C(c2ccc(F)cc2)N1C (stereo unspecified) |  | inactive: -20.8% |
| COC(=O)C1(C)COP(=O)(N2CCCC2)OC1 (stereo unspecified) |  | inactive: 2.53% |
| O=[N+]([O-])c1ccc(Nc2ccc(Oc3ccc([N+](=O)[O-])cc3[N+](=O)[O-])cc2)c([N+](=O)[O-])c1 | active: 7.31 µM |  |
| O=P(Nc1ccccn1)(c1cccc2ccccc12)c1cccc2ccccc12 |  | inactive: 12.2% |
| Cc1cc(SC(NC=O)C(Cl)(Cl)Cl)ncn1 (stereo unspecified) | active: 13 µM |  |
| CCOC(=O)Nc1cccc([As](=O)(O)O)c1 |  | inactive: 18.5% |
| CCCCOc1ccc(C(=O)NCC2(N3CCCCC3)CCCCC2)cc1OC |  | inactive: -4.64% |
| COP(=O)(OC)N1CC1c1ccccc1 (stereo unspecified) |  | inactive: 4.51% |
| CC1CCNP(=O)(N(CCCl)CCCl)O1 (stereo unspecified) |  | inactive: 2.51% |
| CCOC(=O)Nc1ccc([As](=O)(O)O)c(O)c1 |  | inactive: -7.49% |
| O=C(O)C(O)c1ccc(N(CCCl)CCCl)cc1 (stereo unspecified) | active: 2.91 µM |  |
| CC(C)NC(=O)NP(=O)(Oc1ccccc1)Oc1ccccc1 |  | inactive: -2.25% |
| O=C(OC1CN2CCC1CC2)c1cccc2[nH]cnc12 (stereo unspecified) |  | inactive: 2.75% |
| CCN(CC)C(=S)SC(NC=O)C(Cl)(Cl)Cl (stereo unspecified) | active: 3.66 µM |  |
| O=[N+]([O-])c1cc([N+](=O)[O-])c(-c2ccn[nH]2)s1 | active: 10.3 µM |  |
| COC(=O)C1(C)COP(=O)(N2CCCCCC2)OC1 (stereo unspecified) |  | inactive: 3.22% |
| ClCCSc1nnc(-c2cccnc2)o1 |  | inactive: -4.51% |
| O=Cc1ccc(NCCCl)cc1 | active: 12.6 µM |  |

| SMILES | Potency | activity change, negative = growth inhibition |
| --- | --- | --- |
| Cc1ccc2nc3c(c(C)c2c1)CC(C(Cl)Cl)S3 (stereo unspecified) |  | inactive: -24.1% |
| [N-]=[N+]=NC1CCCCC1NC(=O)c1cc([N+](=O)[O-])cc([N+](=O)[O-])c1 (stereo unspecified) | active: 6.51 µM |  |
| Cc1ccc(OP(=O)(Nc2ccc([N+](=O)[O-])cn2)Oc2ccc(C)cc2)cc1 |  | inactive: -0.0966% |
| ClCCN(CCCl)c1ccc(CC2C=CC=C2)cc1 | active: 1.58 µM |  |
| O=[As](O)(c1ccc(O)cc1)c1ccccc1O |  | inactive: 0.445% |
| C[As](=O)(O)c1cccc(C(=O)O)c1 |  | inactive: -8.35% |
| COc1cc(C(=O)NCC2(N3CCOCC3)CCCCC2)ccc1OCC(C)C | active: 9.2 µM |  |
| COc1ccc(N/C(=N/P(=O)(N2CCOCC2)N2CCOCC2)N2CCOCC2)cc1 |  | inactive: -2.16% |
| O=P1(N(CCCl)CCCl)OCCCN1CCCl (stereo unspecified) |  | inactive: -9.52% |
| Cc1cc(=O)[nH]c(N[N+](=O)[O-])n1 |  | inactive: 6.78% |
| COc1cc(C2NCCC3(OCCO3)C2(C)C)cc(OC)c1OC (stereo unspecified) |  | inactive: -25.5% |
| CCOP(=O)(Nc1cccc2ccccc12)OCC |  | inactive: -18.2% |
| CCCOP(=S)(Nc1nc(N)cc(=O)[nH]1)OCCC |  | inactive: 1.08% |
| Nc1cccc2c([As](=O)(O)O)cccc12 |  | inactive: 1.08% |
| Cc1ccc(NCCc2c([N+](=O)[O-])cc([N+](=O)[O-])cc2[N+](=O)[O-])cc1 | active: 16.4 µM |  |
| Cc1cccc(OCC(=O)OC2CN3CCC2CC3)c1 (stereo unspecified) |  | inactive: 6.48% |
| O=[As](O)(c1cccc(O)c1)c1cccc(O)c1 |  | inactive: -3.82% |
| O=[As](O)(O)c1cccnc1 |  | inactive: 7.97% |
| CS(=O)(=O)c1ccc(Cl)c(NC(=O)COC(=O)C(O)(c2ccccc2)c2ccccc2)c1 |  | inactive: -3.55% |
| O=C(OC1CN2CCC1CC2)c1ccc(Cl)cc1 (stereo unspecified) |  | inactive: 19.5% |
| O=[N+]([O-])c1ccc2c(c1)nnn2O |  | inactive: -25.9% |
| CN(C)C(=O)c1cc([N+](=O)[O-])cc2c1-c1c(cc([N+](=O)[O-])cc1[N+](=O)[O-])C2=O | active: 2.06 µM |  |
| CN(C(=O)Cc1ccc(Cl)c(Cl)c1)[C@H]1CC[C@@]2(CCCO2)C[C@@H]1N1CCCC1 | inactive |  |
| N#CCCN(C(=O)COC(=O)C(O)(c1ccccc1)c1ccccc1)c1ccc(F)cc1 |  | inactive: -4.75% |

| SMILES | Potency | activity change, negative = growth inhibition |
| --- | --- | --- |
| CN(C(=O)Cc1ccccc1)[C@@H]1CC[C@]2(CCCO2)C[C@H]1N1CCCC1 |  | inactive: -0.422% |
| CCOP1(=S)c2c(C)nn(CCC#N)c2N=C(c2ccc(F)cc2)N1C (stereo unspecified) |  | inactive: 0.419% |
| NC(=O)Nc1ccc([As](=O)(O)O)cc1 |  | inactive: -9.96% |
| Nc1ccccc1[As](=O)(O)c1ccccc1 |  | inactive: -0.981% |
| O=C(O)COc1ccc([As](=O)(O)O)cc1[N+](=O)[O-] |  | inactive: 10.8% |
| O=P(Nc1nccs1)(Oc1ccccc1)Oc1ccccc1 |  | inactive: 7.15% |
| O=[As](O)(c1cccs1)c1cccs1 |  | inactive: -2.09% |
| Cc1ccc(OCC(=O)OC2CN3CCC2CC3)cc1 (stereo unspecified) |  | inactive: -1.55% |
| O=P1(Nc2ccc(Br)cn2)COc2ccccc2OC1 |  | inactive: -14% |
| NS(=O)(=O)c1cccc(NC(=O)COC(=O)C(O)(c2ccccc2)c2ccccc2)c1 |  | inactive: -1.52% |
| Nc1cccc([As](=O)(O)c2ccccc2)c1 |  | inactive: -4.07% |
| O=P1(Nc2ncccn2)COc2ccccc2OC1 |  | inactive: 10.1% |
| CCCC1OP(=O)(Nc2ccccc2)OCC1CC (stereo unspecified) |  | inactive: 14.3% |
| CN(C)C1(CNC(=O)c2ccc(S(C)(=O)=O)cc2)CCCCC1 |  | inactive: 2.38% |
| Cc1nn(-c2ccccc2)c2c1P(=O)(N1CCOCC1)N(C)C(c1ccccc1)=N2 (stereo unspecified) |  | inactive: 1.58% |
| CC1CCC(C(C)C)C(OP(=O)(Nc2ccccn2)c2ccccc2)C1 (stereo unspecified) | active: 23.1 µM |  |
| Cc1ccc(C(=O)OC2CN3CCC2CC3)cc1 (stereo unspecified) |  | inactive: -9.48% |
| COc1cc([N+](=O)[O-])ccc1[N+](=O)[O-] | active: 11.2 µM |  |
| CC(C)/C=N\N=C(\N)N[N+](=O)[O-] |  | inactive: 4.18% |
| COc1ccccc1CNC(=O)COC(=O)C(O)(c1ccccc1)c1ccccc1 |  | inactive: 1.37% |
| O=P1(N(CCCl)CCCl)NCCC(C(F)(F)F)O1 (stereo unspecified) |  | inactive: 9.05% |
| Clc1n[nH]nc1-c1nn[nH][15n]1 |  | inactive: -12.3% |
| CCOP(=O)(Nc1ccc(C)cn1)OCC |  | inactive: 0.858% |
| CN(CCCl)Cc1cc(Cl)c(NC2=NCCN2)c(Cl)c1 | inactive |  |

| SMILES | Potency | activity change, negative = growth inhibition |
| --- | --- | --- |
| O=P1(Nc2ccccn2)COc2ccccc2OC1 |  | inactive: -1.72% |
| CCC1=CC2Cc3nc4ccc(Cl)cc4c(N)c3C(C1)C2 (stereo unspecified) | active: 10.3 µM |  |
| c1nnnn1CCn1cnnn1 |  | inactive: -4.1% |
| CC(C)C(=O)NC(Sc1ccccc1)C(Cl)(Cl)Cl (stereo unspecified) |  | inactive: 17.6% |
| O=P(Nc1nccs1)(c1ccccc1)c1ccccc1 |  | inactive: 11.1% |
| C(Cc1nn[nH]n1)Cc1nn[nH]n1 |  | inactive: -6.45% |
| Nc1ccc([As](=O)(O)c2ccc([N+](=O)[O-])cc2)cc1 |  | inactive: -9.5% |
| O=C(OC1CN2CCC1CC2)c1cccc(Cl)c1 (stereo unspecified) |  | inactive: -16.1% |
| O=[N+]([O-])c1ccc(O)c(/C=N/Nc2ccc([N+](=O)[O-])cc2[N+](=O)[O-])c1 | active: 5.17 µM |  |
| O=[N+]([O-])c1ncn(CCn2cnc([N+](=O)[O-])n2)n1 |  | inactive: -11.2% |
| CC(=O)NC(SC(=S)N(C)C)C(Cl)(Cl)Cl (stereo unspecified) | active: 0.92 µM |  |
| O=[As](O)(c1ccccc1)c1ccc(O)cc1 |  | inactive: -6.27% |
| O=P(Nc1nc2ccccc2s1)(c1ccccc1)c1ccccc1 |  | inactive: -6.67% |
| C[C@H]1OP(=O)(Oc2ccccc2)[C@H](O)[C@H](O)[C@H]1N=[N+]=[N-] (stereo partly specified) |  | inactive: 0.508% |
| CN(C(=O)Cc1ccccc1)[C@H]1CC[C@@]2(CCCO2)C[C@@H]1N1CCCC1 |  | inactive: -0.866% |
| O=P(Nc1ccccn1)(c1ccc(Br)cc1)c1ccc(Br)cc1 | active: 29.1 µM |  |
| CN(C)C1(CNC(=O)c2ccc(Cl)c(S(N)(=O)=O)c2)CCCCC1 |  | inactive: -2.01% |
| O=c1c2cc([N+](=O)[O-])ccc2[nH]c2c([N+](=O)[O-])cc([N+](=O)[O-])cc12 | active: 0.411 µM |  |
| CN(C)C(=O)Oc1noc2ccccc12 |  | inactive: 7.92% |
| COC(=O)c1cc2c(s1)N=C(c1ccccc1)N(C)P2(=O)N1CCOCC1 (stereo unspecified) |  | inactive: -1.7% |
| O=C(OC1CN2CCC1CC2)c1ccccc1 (stereo unspecified) | inactive |  |
| CCC(=O)N1C2C3N(C(=O)CC)C1C1N(C(=O)CC)C(C(N1C(=O)CC)N3C(=O)CC)N2C(=O)CC |  | inactive: 0.311% |
| O=P1(N(CCCl)CCCl)OCCC2CCCCN21 (stereo unspecified) |  | inactive: -3.38% |
| CCNC(=S)/N=C(\N)N[N+](=O)[O-] |  | inactive: 2.89% |

| SMILES | Potency | activity change, negative = growth inhibition |
| --- | --- | --- |
| O=C(NC1CCS(=O)(=O)C1)NP(=S)(Oc1ccccc1)Oc1ccccc1 (stereo unspecified) |  | inactive: 4.7% |
| c1ccc(-c2nn[nH]n2)c(-c2nn[nH]n2)c1 |  | inactive: 12.1% |
| O=[N+]([O-])c1cc([N+](=O)[O-])c2nc[nH]c2c1 | active: 0.0794 µM |  |
| Cc1ccc(NP(=O)(Oc2cccc(C)c2)Oc2cccc(C)c2)nc1 |  | inactive: -22.1% |
| CC(=O)Nc1ccc([As](=O)(O)O)c(O)c1 |  | inactive: 7.33% |
| N#C/C(=C\c1ccc(N(CCBr)CCBr)cc1)C(N)=O | active: 0.731 µM |  |
| COC(=O)C1(C)COP(=O)(NCc2ccccc2)OC1 (stereo unspecified) |  | inactive: 0.994% |
| C[C@H]1OP(=O)(Oc2ccccc2)C[C@@H]2O[C@@H]21 (stereo partly specified) |  | inactive: 11.8% |
| C[C@@H]1C=CCP(=O)(Oc2ccccc2)O1 (stereo partly specified) |  | inactive: 13.6% |
| CCc1cc(O)c([N+](=O)[O-])c(C)c1[N+](=O)[O-] |  | inactive: 5.47% |
| CC(C)(C)C(=O)NC(Sc1ccccc1)C(Cl)(Cl)Cl (stereo unspecified) |  | inactive: 4.69% |
| O=P1(Nc2nc3ccc(Cl)cc3s2)COc2ccccc2O1 (stereo unspecified) |  | inactive: -9.17% |
| CCOc1ccc(C2=NCC(CBr)S2)cc1 (stereo unspecified) |  | inactive: -17.4% |
| O=[N+]([O-])C1C(O)C(O)C([N+](=O)[O-])C(O)C1O (stereo unspecified) |  | inactive: -3.2% |
| Nc1cc(N)c2nonc2c1[N+](=O)[O-] |  | inactive: -8.42% |
| Oc1ccccc1CNc1ccccn1 |  | inactive: 4.42% |
| O=C(NC(Sc1ccncn1)C(Cl)(Cl)Cl)c1ccccc1 (stereo unspecified) |  | inactive: -29.2% |
| COc1ccccc1OP(=O)(Nc1ccc(C)cn1)Oc1ccccc1OC |  | inactive: -18.2% |
| Cc1ccc(OP(=O)(Nc2nccs2)Oc2ccc(C)cc2)cc1 |  | inactive: 0.766% |
| CN1CCCC(OC(=O)C(c2ccccc2)c2ccccc2)C1 (stereo unspecified) |  | inactive: -3.82% |
